# Biological target: Nociceptin receptor (Homo sapiens, UniProt P41146)
# Sequences of proteins named here, by UniProt entry; tags and fusion partners are left off. A change or cut given only in a name is not applied to a line headed by its entry.
# UniProt P41146: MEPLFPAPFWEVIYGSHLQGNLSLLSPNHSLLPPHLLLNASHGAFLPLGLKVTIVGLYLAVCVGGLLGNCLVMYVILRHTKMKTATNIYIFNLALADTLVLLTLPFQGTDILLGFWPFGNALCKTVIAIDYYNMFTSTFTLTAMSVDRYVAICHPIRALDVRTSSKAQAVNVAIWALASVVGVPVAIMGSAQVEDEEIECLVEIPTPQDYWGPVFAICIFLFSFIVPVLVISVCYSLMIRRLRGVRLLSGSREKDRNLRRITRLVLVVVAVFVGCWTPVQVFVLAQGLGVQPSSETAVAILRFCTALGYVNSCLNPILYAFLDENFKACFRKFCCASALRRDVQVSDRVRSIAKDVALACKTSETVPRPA
# Assay: Activity at NOP expressed in HEK293 cells assessed as stimulation of [35S]GTPgammaS binding relative to basal level
# Format: functional, cell-based
compound,measurement,value
CN(C(=O)Cc1ccc(Cl)c(Cl)c1)C1CCCCC1N1CCCC1 (stereo unspecified),Emax,0%

# — ChEMBL document CHEMBL1152554, “Synthesis and pharmacological evaluation of 6-naltrexamine analogs for alcohol cessation” (Bioorg Med Chem, 2009)
